Columns and labels:
Conditions in all cases: liposome binding signal on yeast proteome chip, Cy3-streptavidin detection
[1] = system: phosphatidylcholine (PC) liposomes; assay: Yeast proteome chip probed with PC liposomes
Description: (§1) To identify PI-binding proteins in yeast, liposomes were used as probes because the liposome provides the most relevant physiological condition to assay the interactors. Six types of liposomes were used. Each contains phosphatidylcholine (“PC”) with 1% (w/w) N-(biotinoyl)-1,2-dihexadecanoyl-sn-glycero-3-phosphoethanolamine, triethylammonium salt (biotin DHPE). The biotinylated lipid serves as a label that can be detected by Cy3-streptavidin (21). In addition to PC, the five other liposomes contain either 5% (w/w) PI(3)P, PI(4)P, PI(3,4)P2, PI(4,5)P2, or PI(3,4,5)P3 (FIG. 3A). Each of these phospholipids has been found in yeast except PI(3,4,5)P3 (Odorizzi et al., 2000, TIBS 25:229; Fruman et al., 1998, Annu. Rev. Biochem. 67:481; Martin, 2000, Annu. Rev. Cell Dev. Bio. 14:231; Wera et al., 2001, FEMS Yeast Res. 1406:1).
(§2) The protein-liposome interaction was assayed as follows. Appropriate amounts of each lipid in chloroform were mixed and dried under nitrogen. The lipid mixture was resuspended in TBS buffer by vortexing. The liposomes were created by sonication. Blocked proteome chips were washed three to five times in PBS buffer, and the extra liquid on the glass surface was removed by tapping the slides vertically on a KIMWIPE™. 200 μl of liposome solution was added to the proteome chip and immediately covered by a hydrophobic plastic cover slip (GRACE BIO-LAB™, USA). […]

PI(3,4,5)P3 liposomes = assay: Yeast proteome chip probed with PI(3,4,5)P3 liposomes
Description: as §1, §2

PI(3,4)P2 liposomes = assay: Yeast proteome chip probed with PI(3,4)P2 liposomes
Description: as §1, §2

PI(3)P liposomes = assay: Yeast proteome chip probed with PI(3)P liposomes
Description: as §1, §2

PI(4,5)P2 liposomes = assay: Yeast proteome chip probed with PI(4,5)P2 liposomes
Description: as §1, §2

PI(4)P liposomes = assay: Yeast proteome chip probed with PI(4)P liposomes
Description: as §1, §2

B1: YEL048C: yeast GST-HisX6 fusion protein on proteome chip (protein, UniProt P32613 1-152, looked up)
TRAPP-associated protein TCA17: MSLRPCFVSLIDESDKPILIYVPNEAENEMNDVLKYNVLSNISLDYFESALVEWHSLDSKPLLKSIFQLEGVSVFAMLIKQTGLKIVIGFEQKSLSGADDEFEAINQIFETVRKIYIRVKCNPLLVSGDEKSIIKSLERKFDELFISTEVEL
modifications: GST-His6 tag
notes: yeast GST-HisX6 fusion protein on proteome chip
Question: B1 was tested. Which PC [1] did it give?
Answer: The PC was 140.58.

Question: And the “PI(3, 4, 5)P3” value (PI(3,4,5)P3 liposomes)?
Answer: Its value is 87.75.

Question: What about the “PI(3, 4)P2” value (PI(3,4)P2 liposomes) of the same molecule?
Answer: Its value is 76.13.

Question: And the “PI(3)P” value (PI(3)P liposomes)?
Answer: Its value is 17.75.

Question: What about the “PI(4, 5)P2” value (PI(4,5)P2 liposomes) of the same molecule?
Answer: Its value is 45.07.

Question: What about the “PI(4)P” value (PI(4)P liposomes) of the same molecule?
Answer: The value was 68.81.

Reference: patent publication US20050182242A1, “Global analysis of protein activities using proteome chips” (priority 2001, published 2005)
